Values of other authors in patent publication US6242481A, “Methods for the inhibition of angiogenesis with arglabin” (priority 1999, dated 2001).

Columns and labels:
[1] = test system: pulmonary hemangiomatosis; conditions: in vivo; cited from earlier work
[2] = test system: tumor-induced angiogenesis in mouse dermis; conditions: cited from earlier work
[3] = test system: angiogenesis induced by allogeneic spleen cells; conditions: in vivo; cited from earlier work

Molecule | treatment of pulmonary hemangiomatosis [1] | inhibition of tumor-induced angiogenesis [2] | inhibition of angiogenesis induced by allogeneic spleen cells [3]
Human recombinant interferon (alpha/A): Human recombinant interferon (alpha/A) | successfully used | – | –
human interferon beta: human interferon beta (protein, UniProt P01574 22-187, looked up) Interferon beta: MSYNLLGFLQRSSNFQCQKLLWQLNGRLEYCLKDRMNFDIPEEIKQLQQFQKEDAALTIYEMLQNIFAIFRQDSSSTGWNETIVENLLANVYHQINHLKTVLEEKLEKEDFTRGKLMSSLHLKRYYGRILHYLKAKEYSHCAWTIVRVEILRNFYFINRLTGYLRN | – | inhibit tumor-induced angiogenesis | potent inhibitor
